Earlier results in US11707610B2, “Ingestible device for delivery of therapeutic agent to the gastrointestinal tract” (BIORA THERAPEUTICS, INC., priority 2019, dated 2023).

For Interferon alfa-2b, which “Storage temperature: time at room temp” value is on record?
Its value is “up to seven”.
